PubChem BioAssay AID2597 (National Center for Advancing Translational Sciences (NCATS), 2010)
The entries are a selection whose mix differs from that of the whole data set. Results filed as inconclusive are left out. The source made the active and inactive calls. Calls follow the shape of the dose curve; as a rule, active = well fitted curve in the direction sought with a large enough effect; inconclusive = small, poorly fitted or top-dose-only effect, or effect the other way, or another doubt; inactive = no such curve, though single readings can be large or run the other way.

Chains of the proteins cited; added tags and fusions are not shown. Lines headed by an entry give the natural chain unless they say otherwise; changes in a name come on top.
UniProt P04062: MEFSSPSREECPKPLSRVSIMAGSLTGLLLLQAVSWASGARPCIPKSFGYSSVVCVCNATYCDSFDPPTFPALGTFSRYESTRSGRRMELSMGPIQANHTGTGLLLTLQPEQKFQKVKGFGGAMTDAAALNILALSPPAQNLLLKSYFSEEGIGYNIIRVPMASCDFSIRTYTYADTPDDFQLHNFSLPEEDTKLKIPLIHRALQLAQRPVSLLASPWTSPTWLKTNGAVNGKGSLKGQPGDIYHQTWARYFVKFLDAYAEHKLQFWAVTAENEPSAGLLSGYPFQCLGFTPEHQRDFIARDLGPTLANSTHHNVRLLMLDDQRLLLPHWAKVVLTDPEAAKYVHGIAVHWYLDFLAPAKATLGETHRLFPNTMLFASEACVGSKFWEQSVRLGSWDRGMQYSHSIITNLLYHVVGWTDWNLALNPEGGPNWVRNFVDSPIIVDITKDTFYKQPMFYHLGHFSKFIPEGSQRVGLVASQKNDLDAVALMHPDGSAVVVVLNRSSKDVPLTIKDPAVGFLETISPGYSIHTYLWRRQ

Target: Lysosomal acid glucosylceramidase (Homo sapiens) (UniProt P04062)
Assay: qHTS Assay for Inhibitors and Activators of N370S glucocerebrosidase as a Potential Chaperone Treatment of Gaucher Disease: Purified N370S Glucocerebrosidase
Conditions: purified N370S GC, 4-MU-glucoside fluorescence, 40 min
Description: NIH Chemical Genomics Center [NCGC] NIH Molecular Libraries Probe Production Centers Network [MLPCN] MLPCN Grant: MH086442-01 Assay Submitter (PI): Wei Zheng Glucocerebrosidase (GC) catalyzes the hydrolysis of beta-glucocerebroside to glucose and ceramide in lysosomes. Mutations in the glucocerebrosidase gene result in Gaucher disease, an autosomal recessive lysosomal storage disorder. Many of the mutations encountered in patients with Gaucher disease are missense alterations that may cause misfolding, decreased stability and/or mistrafficking of this lysosomal protein. […] These inhibitors include iminosugar analogs and three non-iminosugar inhibitors identified from a previous HTS of 62,000 compounds with the wild type recombinant enzyme. However, the enhancement of enzyme activity by the chaperone action of an enzyme inhibitor must be balanced against the direct inhibition of the enzyme. An enzyme activator could also function as a chaperone by binding to the enzyme and helping to correct its misfolding and mistrafficking. While activators for GC have not yet been identified, they may have better therapeutic potential than inhibitors. Therefore the discovery and development of chemical activators may provide a new strategy for the chaperone therapy. We have optimized a new assay using N370S mutant GC derived from the spleen of a Gaucher patient. […]
NCGC Assay Protocol Summary: This is a fluorogenic enzyme assay with 4-methylumbelliferyl-beta-D-glucopyranoside as the substrate and purified N370S glucocerebrosidase as the enzyme preparation. Upon the hydrolysis of this fluorogenic substrate, the resulting product, […] which can be detected by a standard fluorescence plate reader. […] The AC50 values were determined from concentration-response data modeled with the standard Hill equation. […] (5) Add 2 ul stop solution (1M NaOH and 1M Glycine mixture, pH 10) (6) Detect the assay plate in a ViewLux plate reader (PerkinElmer) with Ex=365 nm and Em=440nm. […]

Potency, active:
Cc1cc(N2CCOCC2)nc2ccc(NC(=O)C3CCCCC3)cc12 562 nM
COc1ccc(Cl)cc1Nc1nc(NCCO)nc(N2CCCC2)n1 11200 nM
CCc1nnc(NC(=O)c2ccc(NS(=O)(=O)c3ccccc3)cc2)s1 1580 nM
